miR-21 reporter – miR-21 reporter, rising signal. HeLa miR-21 FLuc reporter, luciferase, 48 h. Potency, µM (titrated, usually from 38.3 µM), without a hit: at the top dose reporter change, positive = more light. 340,000 tested, under 10 active. AID 2288; active = well fitted rising curve with a large enough effect; inconclusive = small, poorly fitted or top-dose-only effect; inactive = no such curve, though single readings can be large or run the other way;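 also: % of control where 0% means no effect; miR-21 action dims this reporter so a rising signal means less miR-21 action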
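HeLa cells stably expressing CMV-driven firefly luciferase with a downstream miR-21 binding sequence, endogenously expressing miR-21, were treated with titrations (up to about 40uM final) for 48 hours at 37 degree Celsius. Luciferase luminescence was read after lysis.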
PTHR1 ag – PTHR1 (human) receptor agonism; 410,000 tested, 0.075% active; HEK293 GP2 PTHR1 cells, GloSensor cAMP luminescence, 1 h; Potency, µM (highest dose often 115 µM), inactives show top-dose activation, actives largely listed as activators; AID 743266; Q03431; note: potency is the fitted concentration of half-maximal effect; nearly all actives have a fitted effect of over 55% in size
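HEK-293-derived GP2 cells expressing PTHR1 and a GloSensor cAMP reporter, 3,000/well, plated overnight, given luciferin plus IBMX (each 0.5 mM as added) for 1 h at 37 °C, then compound for 1 h at 37 °C. Luminescence was read after 15 min at room temperature.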
GLP1R cytotox – cytotoxicity counter-screen for GLP-1 receptor inverse agonists; HEK293 cAMP-luciferase reporter cells, luminescence, 24 h; Potency, µM (series often up to 38.3 µM), without a hit: at the highest dose activity change, negative = inhibition, hits mostly inhibitors; 410,000 tested, 0.13% active;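 note: loss of luciferase light is scored as toxicity; potency is the fitted concentration of half-maximal effect; % is set by controls: 0 for no effect and ±100 for the full control effect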
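MLSMR compounds, 24 hr on cells at 37 deg C/5% CO2; luminescence after luciferase reagent (12 min RT). Inhibition counted as the undesired cytotoxic outcome.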
Pin1 inh – inhibitors of human Pin1; Q13526; Pin1 FP peptide displacement, HiFluor488, 10 min; Potency, µM (highest dose often 115 µM), without a hit: at the top dose activity, negative = inhibition, most hits filed as inhibitors; 390,000 tested, 0.009% active; AID 504891; active = well fitted inhibition curve with a large enough effect in the polarisation, with a control signal flat, not every such curve was filed as active; inconclusive = small, poorly fitted or top-dose-only effect, or effect the other way, or a change in a side signal; inactive = no such curve, though single readings can be large or run the other way; the % refers to the polarisation; note: potency is the fitted concentration of half-maximal effect; % is set by controls: 0 for no effect and ±100 for the full control effect
GLP1R ag – activates the human GLP-1 receptor; P43220; HEK293 GLP-1R CRE-luciferase, luminescence, 4-6 h; cells express a hypersensitive GLP-1R form; Potency, µM (highest dose often 45.6 µM), without a hit: at the top dose activation, usual class: activators; 380,000 tested, 0.007% active; AID 624172; note: potency is the fitted concentration of half-maximal effect; % of control where 0% means no effect
GLP1R inv ag – GLP-1 receptor (human) inverse agonism | P43220 | HEK293 GLP-1R CRE-luciferase, luminescence, 24 h; GLP-1R form is constitutively active | Potency, µM (doses to about 38.3 µM), for the others: at the highest dose activity change, negative = inhibition, most hits filed as inhibitors | AID 624417 | 410,000 tested, 1.6% active; note: potency is the fitted concentration of half-maximal effect; % is set by controls: 0 for no effect and ±100 for the full control effect; nearly all actives have a fitted effect of over 55% in size
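Using stably transfected HEK293 (constitutively active GLP-1R, cAMP-luciferase reporter), compounds were incubated 24 hr and luciferase measured by luminescence.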
Active calls of the source: *. In the library only some 1.7% were active in any assay of this set; here they are far more common. Unless noted, calls come from the whole dose curve; as a rule, active = well fitted curve in the direction sought with a large enough effect; inconclusive = small, poorly fitted or top-dose-only effect, or another doubt; inactive = no such curve, though single readings can be large; an effect the other way counts as inactive or inconclusive.

What do the screens show for `CCOC(=O)C1CCCN(C(=O)c2ccc3c(c2)sc2nc(-c4cccc(OC)c4)cn23)C1` (stereo not given)?
miR-21 reporter: -8%; PTHR1 ag: -90%; GLP1R cytotox: 4%; Pin1 inh: 1%; GLP1R inv ag: 4%

How did O=C(O)c1ccc(N/N=C/c2ccc(OC(=O)c3ccccc3Cl)cc2)cc1 do in these assays?
miR-21 reporter: 27%; PTHR1 ag: -15%; GLP1R cytotox: 1%; Pin1 inh: inconclusive; GLP1R ag: 0%; GLP1R inv ag: 7.1µM*

How did Nc1ccc(C(=O)N/N=C\c2ccc(OC(=O)c3ccccc3Cl)cc2)cc1 do in these assays?
miR-21 reporter: -20%; PTHR1 ag: -5%; GLP1R cytotox: 1%; Pin1 inh: 1%; GLP1R ag: 5%; GLP1R inv ag: 5%

What do the screens show for `COc1cc(NC(=O)C2CCCCC2)c(OC)cc1NC(=O)CN1CCCCC1`?
miR-21 reporter: -8%; PTHR1 ag: inactive; GLP1R cytotox: inconclusive; Pin1 inh: 1%; GLP1R ag: 16%; GLP1R inv ag: 2.5µM*

What do the screens show for `COc1cc(NC(=O)c2ccc(Cl)cc2)c(OC)cc1NC(=O)CN1CCCCC1`?
miR-21 reporter: -13%; PTHR1 ag: inactive; GLP1R cytotox: inconclusive; Pin1 inh: -9%; GLP1R ag: 19%; GLP1R inv ag: 3.5µM*

How did CC1(C(=O)Nc2ccccc2Cc2ccccc2)CCN1CCc1ccccc1 (stereo not given) do in these assays?
PTHR1 ag: -79%; GLP1R cytotox: 6%; GLP1R ag: -3%; GLP1R inv ag: 13µM*

How did CC1CN(C(=O)c2ccccc2Nc2ccc(SC(F)F)cc2)CC(C)O1 (stereo not given) do in these assays?
miR-21 reporter: 5%; PTHR1 ag: inactive; GLP1R cytotox: 11%; Pin1 inh: -1%; GLP1R ag: 5%; GLP1R inv ag: 3%

How did CC1CCCC(C)N1C(=O)c1ccccc1Nc1ccc(SC(F)F)cc1 (stereo not given) do in these assays?
miR-21 reporter: 10%; PTHR1 ag: -13%; GLP1R cytotox: -16%; Pin1 inh: inconclusive; GLP1R ag: 1%; GLP1R inv ag: 5.6µM*

How did COc1ccc(Br)cc1CNC(=O)C1CCN(c2nnc(-n3cccc3CNc3ccc(C)cc3)s2)CC1 do in these assays?
miR-21 reporter: -1%; PTHR1 ag: inactive; GLP1R cytotox: 1%; Pin1 inh: 27%; GLP1R inv ag: inconclusive

How did Cc1ccc(NCc2cccn2-c2nnc(N3CCC(C(=O)NCCc4ccc(Cl)cc4)CC3)s2)cc1 do in these assays?
miR-21 reporter: 25%; PTHR1 ag: -5%; GLP1R cytotox: -13%; Pin1 inh: 19%; GLP1R inv ag: 10µM*

How did O=C1C(Nc2cccc(O)c2)=C(N2CCCCC2)C(=O)c2ccccc21 do in these assays?
miR-21 reporter: 8%; PTHR1 ag: -12%; GLP1R cytotox: 3.5µM*; Pin1 inh: -13%; GLP1R ag: 5%; GLP1R inv ag: inconclusive

How did COc1ccccc1-c1cc(C(F)(F)F)nc(S(=O)(=O)CCCC(=O)Nc2cccnc2Cl)n1 do in these assays?
miR-21 reporter: inconclusive; PTHR1 ag: -27%; GLP1R cytotox: 8.9µM*; Pin1 inh: 3%; GLP1R ag: -3%; GLP1R inv ag: inconclusive

Brought forward from above: 3 compounds, then new ones.
How did Cc1ccc(NCc2cccn2-c2nnc(N3CCC(C(=O)NCCc4ccc(Cl)cc4)CC3)s2)cc1 do in these assays?
miR-21 reporter: 25%; PTHR1 ag: -5%; GLP1R cytotox: -13%; Pin1 inh: 19%; GLP1R inv ag: 10µM*

How did O=C1C(Nc2cccc(O)c2)=C(N2CCCCC2)C(=O)c2ccccc21 do in these assays?
miR-21 reporter: 8%; PTHR1 ag: -12%; GLP1R cytotox: 3.5µM*; Pin1 inh: -13%; GLP1R ag: 5%; GLP1R inv ag: inconclusive

How did COc1ccccc1-c1cc(C(F)(F)F)nc(S(=O)(=O)CCCC(=O)Nc2cccnc2Cl)n1 do in these assays?
miR-21 reporter: inconclusive; PTHR1 ag: -27%; GLP1R cytotox: 8.9µM*; Pin1 inh: 3%; GLP1R ag: -3%; GLP1R inv ag: inconclusive

Results for COc1ccccc1-c1cc(C(F)(F)F)nc(S(=O)(=O)CCCC(=O)Nc2ccccc2F)n1 ?
miR-21 reporter: inconclusive; PTHR1 ag: -3%; GLP1R cytotox: -23%; Pin1 inh: -2%; GLP1R inv ag: 6%

Results for CCN(CCCNC(=O)c1ccc(Sc2ccc(Cl)cc2)c(NC(C)=O)c1)c1cccc(C)c1 ?
miR-21 reporter: 8%; PTHR1 ag: -11%; GLP1R cytotox: 4%; Pin1 inh: -4%; GLP1R inv ag: -3%

How did CCN(CCNCC(O)COCc1ccc(Cl)cc1)c1cccc(C)c1 (stereo not given) do in these assays?
miR-21 reporter: 5%; PTHR1 ag: -9%; GLP1R cytotox: inconclusive; Pin1 inh: -1%; GLP1R ag: 0%; GLP1R inv ag: 10µM*

How did O=C(COc1ccc(/C=C\[N+](=O)[O-])cc1)N1CCOCC1 do in these assays?
miR-21 reporter: 8%; PTHR1 ag: -52%; GLP1R cytotox: 5%; Pin1 inh: inconclusive; GLP1R ag: -3%; GLP1R inv ag: 4%

How did O=[N+]([O-])/C=C\c1ccc(N2CCOCC2)cc1 do in these assays?
PTHR1 ag: -44%; GLP1R cytotox: inconclusive; Pin1 inh: -7%; GLP1R ag: -7%; GLP1R inv ag: 11µM*

How did Cc1cc(O)c(C(C)C)cc1NC(=O)Nc1cccc2ccccc12 do in these assays?
miR-21 reporter: 23%; PTHR1 ag: -20%; GLP1R cytotox: -5%; Pin1 inh: -6%; GLP1R ag: 18%; GLP1R inv ag: 6.3µM*

Results for N#CC1c2ccccc2-c2ccccc2N1C(=O)c1ccccc1 (stereo not given) ?
PTHR1 ag: inactive; GLP1R cytotox: -23%; GLP1R ag: 17%; GLP1R inv ag: 7.1µM*

What do the screens show for `CC(NC(=O)CN(C)CC(=O)Nc1ccc(Cl)c(C(F)(F)F)c1)c1ccccc1` (stereo not given)?
PTHR1 ag: -36%; GLP1R cytotox: 6%; Pin1 inh: -2%; GLP1R ag: -4%; GLP1R inv ag: 10µM*

What do the screens show for `CN(C)S(=O)(=O)c1cccc(NC(=O)COC(=O)c2ccc3ccccc3n2)c1`?
PTHR1 ag: 6%; GLP1R cytotox: -10%; Pin1 inh: 7%; GLP1R ag: -5%; GLP1R inv ag: 1%

How did CN(C)S(=O)(=O)c1cccc(NC(=O)COC(=O)c2cc(-c3cccc(Br)c3)nc3ccccc23)c1 do in these assays?
miR-21 reporter: -8%; PTHR1 ag: inactive; GLP1R cytotox: -9%; Pin1 inh: 21%; GLP1R ag: -25%; GLP1R inv ag: 10µM*

What do the screens show for `COc1ccc2nc(N3C(=O)CNC3=S)sc2c1`?
miR-21 reporter: -34%; PTHR1 ag: -15%; GLP1R cytotox: 7.9µM*; Pin1 inh: -2%; GLP1R ag: 0%; GLP1R inv ag: inconclusive

What do the screens show for `CCCCC1CCC(C(=O)Nc2ccccc2N2CCOCC2)CC1` (stereo not given)?
PTHR1 ag: -18%; GLP1R cytotox: 3%; Pin1 inh: inconclusive; GLP1R ag: -6%; GLP1R inv ag: 10µM*

Bioassay records deposited in PubChem by National Center for Advancing Translational Sciences (NCATS).
